In ChEMBL document CHEMBL1131555 (Bioorg Med Chem Lett, 1998) one finds EC50 and Ki data, which are given here for one compound.

Molecules are shown by their SMILES. pEC50, pKi: −log10 of the molar value.

The target of assay [1] is T1, Progesterone receptor (Homo sapiens, UniProt P06401).
T1 sequence (P06401 whole entry): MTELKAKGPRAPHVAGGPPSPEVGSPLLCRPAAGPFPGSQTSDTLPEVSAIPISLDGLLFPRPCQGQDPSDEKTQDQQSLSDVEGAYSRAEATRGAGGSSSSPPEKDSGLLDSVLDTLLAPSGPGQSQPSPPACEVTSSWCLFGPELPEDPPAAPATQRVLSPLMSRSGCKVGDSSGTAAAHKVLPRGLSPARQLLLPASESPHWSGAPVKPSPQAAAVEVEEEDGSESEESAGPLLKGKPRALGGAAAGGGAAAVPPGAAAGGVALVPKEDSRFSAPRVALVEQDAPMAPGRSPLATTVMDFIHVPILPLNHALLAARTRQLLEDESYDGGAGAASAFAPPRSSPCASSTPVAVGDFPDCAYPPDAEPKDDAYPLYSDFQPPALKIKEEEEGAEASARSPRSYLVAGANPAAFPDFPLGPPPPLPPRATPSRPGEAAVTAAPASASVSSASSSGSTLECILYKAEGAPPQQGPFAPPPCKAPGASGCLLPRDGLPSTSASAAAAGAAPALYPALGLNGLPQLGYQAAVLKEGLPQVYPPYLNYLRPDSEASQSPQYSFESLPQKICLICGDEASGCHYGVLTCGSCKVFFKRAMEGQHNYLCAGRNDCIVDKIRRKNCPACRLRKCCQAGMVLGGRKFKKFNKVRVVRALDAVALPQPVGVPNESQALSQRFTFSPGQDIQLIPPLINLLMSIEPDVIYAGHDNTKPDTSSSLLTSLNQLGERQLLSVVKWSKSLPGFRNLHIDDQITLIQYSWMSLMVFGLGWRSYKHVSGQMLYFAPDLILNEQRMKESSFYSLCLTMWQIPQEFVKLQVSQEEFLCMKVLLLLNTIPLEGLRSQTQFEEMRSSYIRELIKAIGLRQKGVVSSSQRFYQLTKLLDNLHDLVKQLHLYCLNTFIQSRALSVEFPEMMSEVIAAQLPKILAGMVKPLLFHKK

Assay [2] has as its target T1, Progesterone receptor. The source holds these as a separate data set.
Assay [3] concerns the target T1, Progesterone receptor. This is another data set of the same source.

With `CCCCC1Oc2ccc(OC)cc2-c2ccc3c(c21)C(C)=CC(C)(C)N3` (stereo not drawn), the pEC50 (in general, −log10 of the EC50, conventionally taken in molar units) in assay [1] is 8.03; in assay [2], under 5.00. Besides, the negative logarithm of the Ki (pKi) (as a rule, the Ki on a negative log10 scale, so that one unit is a factor of ten) in assay [3] was 8.46.
